Tested on: M2 cells
Assay: Inhibition of osteogenic differentiation of M2 cells by oxidative stress (XXO, MM-LDL): blocking, protection and rescue
Format: cell-based, mouse
Settings: pretreatment 48 hours, 250 ng/ml (data not shown)
Method: Cell Culture—M2-10B4 mouse marrow stromal cell line (American Type Culture Collection, “ATCC”, Rockville, Md. USA) was derived from bone marrow stromal cells of a (C57BU6J x C3H/HeJ) F1 mouse, and supports human and murine myelopoieses in long-term cultures (as per ATCC). These cells were cultured in RPMI 1640 containing 10% heat-inactivated FBS, and supplemented with 1 mM sodium pyruvate, 100 U/mL penicillin, and 100 U/ml streptomycin (all from Irvine Scientific). The osteogenic medium for these studies consisted of RPMI 1640 with all supplements described above to which 5% FBS, 25 μg/ml ascorbate and 3 mM beta-glycerophosphate were also added. […]
The effect of oxysterols on xanthine/xanthine oxidase inhibition of osteoblast marker expression in marrow stromal cells was tested. […] After 6 days, alkaline phosphatase activity in whole cell extracts was measured for each treatment group.
The effect of oxysterols on minimally oxidized LDL inhibition of osteoblast marker expression in marrow stromal cells was tested. […] After 6 days, alkaline phosphatase activity in whole cell extracts was measured. […] After 8 days, total RNA from duplicate samples was isolated and analyzed for osteocalcin or 18S rRNA expression by Northern blotting. […]

B1: rhBMP2: recombinant human BMP2 from R&D Systems (protein, UniProt P12643 283-396, looked up)
Bone morphogenetic protein 2: QAKHKQRKRLKSSCKRHPLYVDFSDVGWNDWIVAPPGYHAFYCHGECPFPLADHLNSTNHAIVQTLVNSVNSKIPKACCVPTELSAISMLYLDENEKVVLKNYQDMVVEGCGCR
protection from the adverse effects of oxidative stress on osteogenic differentiation: protected

Source: patent US20090220562A1, “Osteogenic and anti-adipogenic oxysterols” (priority 2005, published 2009)
